Results reported in paper PMC10073729, “Synthesis, radiolabeling, and evaluation of 68Ga-labeled aminoquinoxaline derivative as a potent PFKFB3-targeted PET tracer” (Frontiers in Chemistry, 2023).

Tested on: NUGC3 tumors
Experiment: Micro-PET imaging in nude mice bearing NUGC3 tumors
Parameters: species or system BALB/c nude mice
Settings: mouse, in vivo

**Q.** Which results are given for `OC[C@H]1OC(O)[C@H](F)[C@@H](O)[C@@H]1O` (some centres unmarked) [^18F-FDG, ^18F-fluorodeoxyglucose]?
**A.** Tumor SUV: 0.54; Tumor-to-muscle ratio: 8.28
